PubChem AID 2061109: pyroptosis screen in mouse bone marrow macrophages, one dose (5 µM).
Target pathway: NLRP3 inflammasome, triggered by LPS and nigericin. Dead cells counted by propidium iodide.
Higher is more protection: 100% equals untreated cells, 0% the stimulated control, negative values set to 0. Active call (*): above 70%. Part of the library is listed.

SMILES | inhibition (%)
COc1ccc(N2CCN(C(=S)Nc3ccc([N+](=O)[O-])cc3)CC2)c(N)c1 | 0.0
CC(=O)O.CN=C(N)NCCC[C@@H](N)C(=O)O | 45.5
NC(=O)CN1CCN(c2ccc(Nc3ncc4ccn(Cc5cc(F)cc(F)c5)c4n3)cc2)CC1 | 28.8
CC1=C(CC[C@@H](C)CO[C@@H]2O[C@H](CO)[C@@H](O)[C@H](O)[C@H]2O)O[C@H]2C[C@H]3[C@@H]4CC=C5C[C@@H](O[C@@H]6O[C@H](CO)[C@@H](O[C@@H]7O[C@@H](C)[C@H](O)[C@@H](O)[C@H]7O)[C@H](O)[C@H]6O[C@@H]6O[C@@H](C)[C@H](O)[C@@H](O)[C@H]6O)CC[C@]5(C)[C@H]4CC[C@]3(C)[C@@H]12 | 58.5
OCC(CO)N[C@H]1C[C@](O)(CO)[C@@H](O)[C@H](O)[C@H]1O | 0.0
COc1nc2ccc(Br)cc2cc1[C@@H](c1ccccc1)[C@@](O)(CCN(C)C)c1cccc2ccccc12 | 0.0
Cc1cc(C)c(CNC(=O)c2cc(Cl)c3c(c2C)O[C@@](C)(C2CCC(N(C)C)CC2)O3)c(=O)[nH]1 | 1.3
Nc1ccc(C#CCN(C(=O)Cc2ncc(C(F)(F)F)cc2C(F)(F)F)c2ccc(F)cc2)nn1 | 0.0
O=C(/C=C\n1cnc(-c2cc(C(F)(F)F)cc(C(F)(F)F)c2)n1)NNc1ccccn1 | 0.0
Oc1cc2c(cc1O)[C@@H]1c3ccc(O)c(O)c3OC[C@]1(O)C2 | 15.7
CC[C@H](N)c1ccc(N(C)C)cc1C | 63.0
CCOC(=O)COc1ccc(C=C2SC(=N)NC2=O)cc1OC | 11.2
COc1ccccc1OCCNCC(O)c1ccc(C)c(S(N)(=O)=O)c1 | 76.5*
COc1cc(C(=O)N(CCCc2ccccc2)Cc2ccc(CC(=O)O)cc2)cc(OC)c1C | 0.0
O=C(Nc1ccc(C(F)(F)F)cc1)c1cc(Cl)cc2[nH]c(C(F)(F)F)nc12 | 0.0
CC(C)n1nc(-c2ccc(NC(=O)Nc3cccc(C(F)(F)F)c3)cc2)c2c(N)ncnc21 | 37.6
O=C(O)[C@H]1O[C@@H](Oc2cc(O)c3c(=O)cc(-c4ccc(O)cc4)oc3c2)[C@H](O)[C@@H](O)[C@@H]1O | 38.3
CO[C@@H]1C[C@@H](C[C@H]2CC[C@H](C)[C@H]([C@@H](C)C(=O)[O-])O2)O[C@]2(O[C@](C)([C@H]3CC[C@@](C)([C@@H]4O[C@@H]([C@H]5O[C@@](O)(CO)[C@H](C)C[C@@H]5C)C[C@@H]4C)O3)C[C@H]2C)[C@@H]1C.[Na+] | 19.2
COCc1ccc(NC(=O)c2c(C#CCN3CCOCC3)n(C3(C)CC3)c3ncnc(N)c23)cc1 | 0.1
COc1ccc(C=C2SC(=O)NC2=O)cc1 | 0.0
O=C(Nc1ccccc1)c1ccc(Nc2nnc(-c3ccc(O)cc3)c3ccccc23)cc1 | 79.8*
COc1cccc(-c2ccc(NC(=O)C3=C(C(=O)O)CCC3)c(F)c2)c1 | 0.0
CCS(=O)(=O)Nc1ccc2[nH]c(O)c(C(=Nc3ccc(CN4CCCCC4)cc3)c3ccccc3)c2c1 | 0.0
C=C[C@H]1[C@H](O[C@@H]2O[C@H](CO)[C@@H](O)[C@H](O)[C@H]2O)OC=C2C(=O)OC(O)C[C@H]21 | 21.6
Cn1c(=O)c2[nH]cnc2n(C)c1=O | 0.0
COc1cc(O)cc2oc(-c3ccc(O)c(O)c3)c(O)c(=O)c12 | 31.6
CC(CCN1CCN(c2ccc(F)cc2)CC1)NC(=O)c1cccnc1 | 0.0
C=CCNc1nc(NCC=C)nc(N2CCN(C(c3ccc(F)cc3)c3ccc(F)cc3)CC2)n1.CS(=O)(=O)O.CS(=O)(=O)O | 11.2
Cc1c(N2C(=O)c3ccc(C(=O)O)cc3C2=O)c(=O)n(-c2ccccc2)n1C | 0.0
Cc1cc(N2CCCCC2)cc(C)c1-c1csc(NC(=O)c2ccncc2)n1 | 45.8
CC(C)(O)c1cncc(-c2nc3ccc(F)cc3n2C2CC2)c1 | 0.0
Cc1[nH]n(-c2ccccc2)c(=O)c1N=Nc1ccc(N2CCOCC2)cc1 | 0.0
N#C/C(=C\c1cccnc1)c1c[nH]c2ccccc12 | 14.9
Cn1cnc(Cn2c(=O)nc(Nc3cc4cn(C)nc4cc3Cl)n(Cc3cc(F)c(F)cc3F)c2=O)n1 | 0.0
Cn1c2c(c(=O)n(C)c1=O)C(C(F)(F)F)(C(F)(F)F)N=C(c1ccc(Cl)cc1)N2 | 0.0
Cn1c(=O)c(Oc2ccc(F)cc2F)cc2cnc(NC3CCOCC3)nc21 | 0.0
Cc1csc(-c2nnc(Nc3ccc(Oc4ncccc4-c4ccnc(N)n4)cc3)c3ccccc23)c1 | 84.9*
COc1cc(NC(=O)Cc2cccc(-n3c(=O)c4c(C)noc4c4c(Cl)cccc43)c2)cc(OC)c1OC | 0.0
c1ccc(Cn2c(NCc3ccco3)nc3ccccc32)cc1 | 67.8
COc1cc(C2CCN(C)CC2)ccc1Nc1ncc(C(F)(F)F)c(CCc2ccccc2CC(N)=O)n1 | 13.6
Nc1[nH]c(=S)[nH]c(=O)c1N=Cc1ccccc1 | 67.3
Oc1cc(O)c2c(c1)O[C@@]1(c3ccc(O)c(O)c3)Oc3cc(O)c4c(c3[C@@H]2[C@@H]1O)O[C@H](c1ccc(O)c(O)c1)[C@@H](O)C4 | 53.8
NC(=O)c1ccc(Oc2ccc(CN3CCC[C@H]3c3cccnc3)cc2)c(Cl)c1 | 46.4
COc1ccc([C@@H](O)c2cc(-c3ncnc4cc(N5CCOCC5)ccc34)c(F)cc2Cl)nn1 | 0.0
CS(=N)(=O)CC[C@H](N)C(=O)O | 72.1*
CN1CCN(c2ccc(N3C[C@H](CO)OC3=O)cc2F)C=N1 | 68.6
CC(C)Nc1cc(-c2c[nH]c(C(=O)N[C@H](CO)c3cccc(Cl)c3)c2)c(Cl)cn1 | 66.4
O=C(c1ccc(C(=O)N2CCC(N3CCCCC3)CC2)cc1)N1CCC(N2CCCCC2)CC1 | 63.3
CCOC(=O)c1ccc(NC2CCCCC2)c(N)c1 | 0.0
O=C(NN=Cc1ccccc1O)c1ccc(O)c(O)c1 | 32.9
NC(N)=NCCS.NC(N)=NCCS.O=S(=O)(O)O | 0.0
O=C(O)c1ccc(CSc2nc(-c3ccccc3)cc(N3CCN(c4ccccc4Cl)CC3)n2)cc1 | 69.6
Cn1c(=O)[nH]c2ncn(C)c2c1=O | 75.0*
CCOC(=O)N1c2ccc(C(F)(F)F)cc2[C@@H](N(Cc2cc(C(F)(F)F)cc(C(F)(F)F)c2)C(=O)OC)C[C@H]1CC | 8.9
CO[C@H]1C[C@H](O[C@@H]2/C(C)=C/C[C@@H]3C[C@@H](C[C@]4(CC[C@H](C)[C@@H](C5CCCCC5)O4)O3)OC(=O)[C@@H]3C=C(C)/C(=N\O)[C@H]4OC/C(=C\C=C\[C@@H]2C)[C@]43O)O[C@@H](C)[C@@H]1O | 0.0
COc1ccc(Cn2cc(C(=O)N=Nc3c(O)[nH]c4c(C)cccc34)nn2)cc1 | 16.3
CC(C)OC(=O)NC1CCN(Cc2cc(Cl)c3cccnc3c2O)CC1 | 71.8*
O=C(/C=C\n1cnc(-c2cc(C(F)(F)F)cc(C(F)(F)F)c2)n1)N1CC(F)(F)C1 | 62.7
O=C(O)/C=C/C(=O)O.c1ccc(C(O[C@@H]2CCCN(CCc3ccc4c(c3)OCO4)C2)c2ccccc2)cc1 | 19.5

7 of the compounds above, restated:

{"SMILES": "COc1ccccc1OCCNCC(O)c1ccc(C)c(S(N)(=O)=O)c1", "inhibition (%)": "76.5*"}
{"SMILES": "COc1cc(C(=O)N(CCCc2ccccc2)Cc2ccc(CC(=O)O)cc2)cc(OC)c1C", "inhibition (%)": "0.0"}
{"SMILES": "O=C(O)c1ccc(CSc2nc(-c3ccccc3)cc(N3CCN(c4ccccc4Cl)CC3)n2)cc1", "inhibition (%)": "69.6"}
{"SMILES": "CC(C)(O)c1cncc(-c2nc3ccc(F)cc3n2C2CC2)c1", "inhibition (%)": "0.0"}
{"SMILES": "NC(=O)CN1CCN(c2ccc(Nc3ncc4ccn(Cc5cc(F)cc(F)c5)c4n3)cc2)CC1", "inhibition (%)": "28.8"}
{"SMILES": "CC(C)Nc1cc(-c2c[nH]c(C(=O)N[C@H](CO)c3cccc(Cl)c3)c2)c(Cl)cn1", "inhibition (%)": "66.4"}
{"SMILES": "NC(=O)c1ccc(Oc2ccc(CN3CCC[C@H]3c3cccnc3)cc2)c(Cl)c1", "inhibition (%)": "46.4"}